# Ab-91 heavy chain CDR variants: yeast mating affinities

The measurements come from Engelhart et al. 2022 (doi:10.1038/s41597-022-01779-4) through the FLAb antibody collection.

Antigen: PDVDLGDISGINAS, a 14-residue peptide of the SARS-CoV-2 spike HR2 region.

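The parent was found by panning a naive human phage display library on the peptide. In library AAYL51, one, two or three CDR residues were substituted; doubles and triples were drawn at random. In AlphaSeq, yeast of one mating type display the scFv and yeast of the other type display the target. Pairs that bind mate more often; barcode pairs of the diploids are counted by sequencing. The ratio of observed to expected reads was calibrated, replicate by replicate, on BCL2-family standards whose Kd was known from biolayer interferometry. The assay was run in three technical replicates.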

Ab-91 is the parent antibody, in scFv form: VL, then a 15-residue (Gly4Ser)3 linker, then VH. The light chain is unchanged in all variants.
VL: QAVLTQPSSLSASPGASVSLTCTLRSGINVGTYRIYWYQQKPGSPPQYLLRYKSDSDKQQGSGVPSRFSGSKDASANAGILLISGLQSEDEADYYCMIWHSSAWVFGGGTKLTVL
VH: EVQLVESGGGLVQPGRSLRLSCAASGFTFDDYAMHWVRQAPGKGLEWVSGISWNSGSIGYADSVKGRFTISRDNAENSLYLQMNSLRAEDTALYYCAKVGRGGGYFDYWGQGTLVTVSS

The whole VH of each variant is written out.
All variants listed here change F29 of the VH, counted from its first residue.
Kd is apparent (estimated from mating counts) and averaged on the log scale over replicates with a signal. Smaller is tighter.
A pair that was not seen in any replicate is written "nd"; this usually means weak binding, but a binder can also be missed.
Empty control strains, which show no peptide, gave a signal in 21% of pairings with library AAYL51; the median was 34 µM and 95% of these signals were weaker than 1.8 µM. No background was subtracted. Also given: how often the same scFv was detected with the empty control strains.

Variant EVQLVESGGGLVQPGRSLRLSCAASGFTLDDYAMHWVRQAPGKGLEWVSGISWNSGSIGYADSVKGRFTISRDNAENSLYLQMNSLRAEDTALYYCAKVGRGGGYFDYWGQGTLVTVSS showed nd (0 of 3 replicates; controls 1 of 9).
Variant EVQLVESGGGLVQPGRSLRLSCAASGFTTDDYAMHWVRQAPGKGLEWVSGISWNSGSIGYADSVCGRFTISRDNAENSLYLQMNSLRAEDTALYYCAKFGRGGGYFDYWGQGTLVTVSS showed nd (0 of 3 replicates; controls 0 of 9).
Variant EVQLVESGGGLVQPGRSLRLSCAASGFTTDDYAMHWVRQAPGKGLEWVSGISWNSGQIGYADSVKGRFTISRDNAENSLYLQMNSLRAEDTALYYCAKVGRGGGYFDAWGQGTLVTVSS showed 16 nM (3 of 3 replicates; controls 1 of 9).
Variant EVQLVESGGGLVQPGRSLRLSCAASGFTCDDYAMHWVRQAPGKGLEWVSGISWNSGSNGYADSVKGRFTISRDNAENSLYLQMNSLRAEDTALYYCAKVGRGGGYFDYWGQGTLVTVSS showed 220 µM (1 of 3 replicates; controls 0 of 9).
Variant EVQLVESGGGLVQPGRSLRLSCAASGFTSDDYAMHWVRQAPGKGLEWVSGISWNSGSNGYADSVKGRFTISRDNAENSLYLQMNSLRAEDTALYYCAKVGRGGAYFDYWGQGTLVTVSS showed 50 µM (1 of 3 replicates; controls 3 of 9).
Variant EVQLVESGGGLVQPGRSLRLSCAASGFTQDDYAMHWVRQAPGKGLEWVSGISWNSGSIGYADSVKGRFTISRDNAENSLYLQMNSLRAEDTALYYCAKMGRGGGYFDYWGQGTLVTVSS showed nd (0 of 3 replicates; controls 0 of 9).
Variant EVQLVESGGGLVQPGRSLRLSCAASGFTHTDYAMHWVRQAPGKGLEWVSGISWNSQSIGYADSVKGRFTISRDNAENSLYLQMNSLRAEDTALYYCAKVGRGGGYFDYWGQGTLVTVSS showed 6.7 µM (1 of 3 replicates; controls 0 of 9).
Variant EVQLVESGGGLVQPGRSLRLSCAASGFTHDDYAMHWVRQAPGKGLEWVSGISWNSGSIGYADSWKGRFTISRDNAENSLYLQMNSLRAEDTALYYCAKVGRGGGYFDYWGQGTLVTVSS showed nd (0 of 3 replicates; controls 2 of 9).
Variant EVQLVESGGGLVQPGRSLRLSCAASGQTPDDYAYHWVRQAPGKGLEWVSGISWNSGSIGYADSVKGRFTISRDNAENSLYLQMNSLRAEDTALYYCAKVGRGGGYFDYWGQGTLVTVSS showed 95 µM (1 of 3 replicates; controls 3 of 9).
Variant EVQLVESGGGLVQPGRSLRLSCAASGFTAYDYAMHWVRQAPGKGLEWVSGISWNSGSIGYADSVEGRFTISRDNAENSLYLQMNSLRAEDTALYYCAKVGRGGGYFDYWGQGTLVTVSS showed 310 µM (2 of 3 replicates; controls 3 of 9).
Variant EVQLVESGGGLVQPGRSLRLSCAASGYTTDDYAMHWVRQAPGKGLEWVSGISWNSGSAGYADSVKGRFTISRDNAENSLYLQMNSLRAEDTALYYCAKVGRGGGYFDYWGQGTLVTVSS showed nd (0 of 3 replicates; controls 0 of 9).
Variant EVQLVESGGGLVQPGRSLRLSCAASGFTTDDYAMHWVRQAPGKGLEWVSGISWNSISNGYADSVKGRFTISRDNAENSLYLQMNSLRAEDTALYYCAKVGRGGGYFDYWGQGTLVTVSS showed 12 µM (2 of 3 replicates; controls 1 of 9).
Variant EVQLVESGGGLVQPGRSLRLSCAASGFTTDDYAMHWVRQAPGKGLEWVSGISWNSGSIGYADSVKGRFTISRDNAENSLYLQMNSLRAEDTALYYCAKVGRWGGYQDYWGQGTLVTVSS showed nd (0 of 3 replicates; controls 0 of 9).
Variant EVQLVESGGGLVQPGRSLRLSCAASGFTMDDDAMHWVRQAPGKGLEWVSGISWNSGSIGYADSVKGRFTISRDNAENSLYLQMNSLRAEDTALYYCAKVGRGGGYFDYWGQGTLVTVSS showed nd (0 of 3 replicates; controls 0 of 9).
Variant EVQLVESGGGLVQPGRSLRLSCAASGFTIDDYAMHWVRQAPGKGLEWVSGISCNSGSIGYADSWKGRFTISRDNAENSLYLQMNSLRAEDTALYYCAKVGRGGGYFDYWGQGTLVTVSS showed 150 µM (1 of 3 replicates; controls 1 of 9).
Variant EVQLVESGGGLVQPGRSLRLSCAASGFTADDYAMHWVRQAPGKGLEWVSGISWNSGSIGYADSNKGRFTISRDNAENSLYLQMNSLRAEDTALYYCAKVGRSGGYFDYWGQGTLVTVSS showed nd (0 of 3 replicates; controls 0 of 9).
Variant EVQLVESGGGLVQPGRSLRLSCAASGFTCDDYAMHWVRQAPGKGLEWVSGISWWSGSIGRADSVKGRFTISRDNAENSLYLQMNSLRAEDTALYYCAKVGRGGGYFDYWGQGTLVTVSS showed nd (0 of 3 replicates; controls 1 of 9).
Variant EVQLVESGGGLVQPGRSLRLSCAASEFTYDDYAMHWVRQAPGKGLEWVSGISWNSGSIGYADSVKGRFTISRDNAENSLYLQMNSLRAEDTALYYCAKPGRGGGYFDYWGQGTLVTVSS showed 62 µM (1 of 3 replicates; controls 3 of 9).

Again, the first 2 entries without any signal:

With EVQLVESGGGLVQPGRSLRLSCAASGFTLDDYAMHWVRQAPGKGLEWVSGISWNSGSIGYADSVKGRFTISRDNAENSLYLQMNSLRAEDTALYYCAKVGRGGGYFDYWGQGTLVTVSS the result was nd (0 of 3 replicates; controls 1 of 9).
With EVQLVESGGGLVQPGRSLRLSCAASGFTTDDYAMHWVRQAPGKGLEWVSGISWNSGSIGYADSVCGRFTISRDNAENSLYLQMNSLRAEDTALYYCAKFGRGGGYFDYWGQGTLVTVSS the result was nd (0 of 3 replicates; controls 0 of 9).